SMILES strings stand for the structures. This is a selection; strong and weak results do not stand in their true shares. Calls of active or inactive are those of the source.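 How the source made its calls: active means inhibition above about 50% (limit read from the data); inactive means the rest.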

The test system of the experiment is calpain II (m-calpain), Sus scrofa. The experiment can be described thus: inhibitors of pig calpain II, primary screen, biochemical, fluorogenic peptide substrate, 1536-well (AID 1236). The note with it: purified calpain II, 30 min, at 16 µM, active compounds read high.
Take `COc1ccc(NC2CCN(CCc3ccccc3)CC2)c(OC)c1`: the inhibition (in general, the drop in the measured response relative to a control, in per cent) was inactive: 23.9%. The result for `CCOc1ccc(C)cc1CN(CCCl)CCCl` reads inactive: 3.36%; that for `Cc1ccc(OCC(C)C)c(CN(CCCl)CCCl)c1`, inactive: 23.4%.

As to `COc1ccc(C(=O)NCC2(N3CCCCC3)CCCCC2)c(OC)c1OC`, the inhibition is inactive: 0.42%. For the compound `O=C(OC1CN2CCC1CC2)C1c2ccccc2Oc2ccccc21` (centres undefined), the inhibition is inactive: 17.6%. Regarding `N#CC1(Nc2ccccc2)CCN(Cc2ccccc2)CC1`, the inhibition is inactive: 4.91%. Regarding `CCOC(=O)N1CCC(Nc2ccc(OC)cc2)CC1`, the inhibition was inactive: 11.9%. As to `O=C(NCC1(N2CCOCC2)CCCCC1)c1cc2ccccc2o1`, the inhibition is inactive: -9.59%. Regarding `CC(C)c1ccc(NC2CCN(C(=O)OC(C)(C)C)CC2)cc1`, the inhibition is inactive: 7.52%. Consider `CN(C)c1cccc(C(=O)NCC2(N3CCCCC3)CCCCC2)c1`, for which the inhibition was inactive: -43%. Then `COc1ccc(CN(CCCl)CCCl)cc1Cl`, with inactive: -35.6%; and `N#CC1(Nc2ccccc2)CCN(CCc2ccccc2)CC1`, with inactive: -18.7%; and `O=C(NCC1(N2CCCCC2)CCCCC1)c1cccc([N+](=O)[O-])c1`, with inactive: -17.7%. As to `O=C(NCC1(N2CCOCC2)CCCCC1)c1cc(=O)[nH]c2ccccc12`, the inhibition is inactive: 16.4%. In the case of `CN1CCN(CCOC(=O)C(O)(c2ccccc2)c2ccccc2)CC1`, the inhibition is inactive: -7.12%. Then `COc1ccc(NC2CCN(C(=O)OC(C)(C)C)CC2)cc1`, with inactive: 14.7%; and `N#Cc1ccc(C(=O)NCC2(N3CCCCC3)CCCCC2)cc1`, with inactive: -10.5%; and `c1ccc(CN2CCC(Nc3ccccc3)CC2)cc1`, with inactive: 0.74%.

With `COc1ccc(C(=O)NCC2(N3CCOCC3)CCCCC2)cc1OC`, the inhibition is inactive: -16.1%. Take `O=C(OC1CN2CCC1CC2)C1c2ccccc2C=Cc2ccccc21` (centres undefined): the inhibition was inactive: -13.9%.

As for `N/C(=N\O)c1c(N)no[n+]1[O-]`, the inhibition was inactive: -12.6%. For `CC(C)(C)OC(=O)N1CCC(Nc2ccccc2)CC1`, the inhibition was inactive: 23.1%. Consider `CCOc1ncccc1C(=O)NCC1(N2CCOCC2)CCCCC1`, for which the inhibition is inactive: 11.8%. Take `CCCOc1ccc(C)cc1CN(CCCl)CCCl`: the inhibition is inactive: -13.4%.

On to `COc1cc(OC)cc(C(=O)NCC2(N3CCOCC3)CCCCC2)c1`, for which the inhibition was inactive: -3.04%. Then `CCC(CO)(C(=O)OC1CN2CCC1CC2)c1ccccc1` (centres undefined), with inactive: 0.19%. Regarding `Fc1ccccc1NC1CCN(Cc2ccccc2)CC1`, the inhibition was inactive: -7.13%. `CN(C)c1ccc(C(=O)NCC2(N3CCCCC3)CCCCC2)cc1`: the inhibition is inactive: -20.3%. For `CCN1CCC(Nc2cccc(F)c2)CC1`, the inhibition was inactive: 13.5%.
